According to paper PMC4249368 (Antimicrobial Agents and Chemotherapy, 2014):
Read-outs that look alike come from different tables or passages of the source.

Columns and labels:
[1] = rabbits, daily 10-mg/kg i.v., agar dilution method; cited from earlier work
[2] = rats, 20-mg/kg i.v., agar dilution method; cited from earlier work
[3] = cited from earlier work
[4] = rats, 20-mg/kg i.v.
[5] = rabbits, daily 10-mg/kg i.v.
[6] = cited from earlier work; remark: listed apart in the source

In the case of ramoplanin, the “12-h concentration (C12)” value [1] is given as 6.4 µg/mL, the “maximal plasma level (Cmax)” value [1] is given as 28 µg/mL and the Cmax [2] is given as 79 µg/mL. The “complication of parenteral administration in humans” value [3] was “hemolysis”, the “systemic absorption after oral dosing” value ([3]; orally dosed) was “not systemically absorbed” and the C12 [4] was 0.8 µM. The “C12 as multiple of MIC” value [4] was 1 × MIC, the Cmax [4] was 31 µM and the “Cmax as multiple of MIC” value [4] was 39 × MIC. For the same substance, the “12-h concentration (C12)” value [5] was 2.5 µM, the “12-h concentration (C12) as multiple of MIC” value [5] was 3 × MIC and the “maximal plasma level (Cmax)” value [5] was 11 µM. The “maximal plasma level (Cmax) as multiple of MIC” value [5] was 14 × MIC and the aqueous solubility [6] was over 100 mg/mL.
